Data published in article PMC11320178 (Chemical Science, 2024).

Assay: Serum stability of crosslinked-UBI
Type: in vitro ADME
Conditions: human serum ∼20% diluted in PBS 7.4, 37 °C
In short: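 The linear comparator is the same sequence with added N- and C-terminal Cys. Its Cys thiols were alkylated with iodoacetamide to prevent oxidative cyclization in physiological buffer.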

SMILES: CSCC[C@@H]1NC(=O)[C@H](CCCNC(=N)N)NC(=O)[C@H](CCCNC(=N)N)NC(=O)[C@H](CCCCN)NC(=O)[C@H](C)NC(=O)[C@H](CCCNC(=N)N)NC(=O)CNC(=O)[C@H]([C@@H](C)O)NC(=O)[C@@H]2CSC3c4cc(ccc4[B-](O)(O)[NH+]32)CNC(=O)CSC[C@@H](C(N)=O)NC(=O)CNC(=O)[C@H](CCCNC(=N)N)NC(=O)[C@H](CCCNC(=N)N)NC(=O)[C@H](CC(N)=O)NC(=O)[C@H](Cc2ccc(O)cc2)NC(=O)[C@H](CCC(N)=O)NC1=O [Cyclic UBI]
- Half-life in human serum relative to the linear precursor (linear UBI): 10 fold
